{"source": "patent US20220088014A1", "about": "(priority 2019, published 2022)", "biological_target": "mu-opiate receptors (Mus musculus, UniProt P42866)", "experiment": "Mouse tail flick assay: analgesia after 14-day chronic administration", "details": "acute Vehicle", "data": [{"smiles": "O=C1CN2c3c(cccc3[C@@H]3CN(CCCc4noc5cc(F)ccc45)CC[C@@H]32)N1", "values": [{"measurement": "Latency", "setting": "(B) chronic Ex. 3, 0.3 mg/kg", "result": 0.893, "unit": "s"}, {"measurement": "Latency", "setting": "(C) chronic Ex. 3, 3.0 mg/kg", "result": 1.04, "unit": "s"}]}]}
